Literature values in patent publication US6548307B2, “Determination of logP coefficients via a RP-HPLC column” (Pfizer Inc., priority 2000, dated 2003).

Conditions: Shake-flask data from literature references; cited from earlier work

Q: Which logPoct does the source give for `c1ccc2ccccc2c1` [Naphthalene] here?
A: The logPoct was 3.37.
